# In ChEMBL document CHEMBL3407465, “Interaction of human organic anion transporter polypeptides 1B1 and 1B3 with antineoplastic compounds” (Eur J Med Chem, 2015):
# Protein sequences, listed by entry. Tags and fused reporters are not part of them. Lines headed by an entry give the natural chain unless they say otherwise; changes in a name come on top.
# UniProt Q9Y6L6: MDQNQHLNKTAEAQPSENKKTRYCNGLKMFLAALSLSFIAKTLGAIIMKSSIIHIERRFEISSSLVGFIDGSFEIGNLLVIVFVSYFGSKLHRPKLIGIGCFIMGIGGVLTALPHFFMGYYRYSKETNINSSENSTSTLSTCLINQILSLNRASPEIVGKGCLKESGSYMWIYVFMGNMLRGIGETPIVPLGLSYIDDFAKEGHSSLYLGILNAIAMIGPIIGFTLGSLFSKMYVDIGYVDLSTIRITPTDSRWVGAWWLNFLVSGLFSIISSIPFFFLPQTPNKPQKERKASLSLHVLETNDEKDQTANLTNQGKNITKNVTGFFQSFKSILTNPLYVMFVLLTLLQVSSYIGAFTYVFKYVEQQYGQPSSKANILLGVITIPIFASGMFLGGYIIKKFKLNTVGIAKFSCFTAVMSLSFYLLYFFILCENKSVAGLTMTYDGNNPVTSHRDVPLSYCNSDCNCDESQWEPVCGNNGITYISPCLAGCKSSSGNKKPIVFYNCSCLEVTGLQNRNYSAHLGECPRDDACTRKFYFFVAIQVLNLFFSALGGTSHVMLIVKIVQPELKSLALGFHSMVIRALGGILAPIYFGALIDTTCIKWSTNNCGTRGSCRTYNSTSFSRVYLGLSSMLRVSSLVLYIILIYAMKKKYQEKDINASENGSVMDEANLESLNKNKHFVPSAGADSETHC
# Target: Solute carrier organic anion transporter family member 1B1 (Homo sapiens, UniProt Q9Y6L6)
# Assay: Stimulation of human OATP1B1-mediated [3H]estrone 3-sulfate at 100 uM after 5 mins relative to control
structure (smiles),measurement,value
O=P1(N(CCCl)CCCl)OCCCN1CCCl (stereo unspecified),Activity,13.1%
